The values that follow are results of earlier work, collected in patent US20130331402A1, “DOSING REGIMEN ASSOCIATED WITH LONG-ACTING INJECTABLE PALIPERIDONE ESTERS” (Janssen Pharmaceutica NV, priority 2009, published 2013).

For this data set the following is noted: oral atypical antipsychotics, Table 2.

For `Cc1cc2c(s1)Nc1ccccc1N=C2N1CCN(C)CC1` [Olanzapine], the “Terminal Half-life” value was 33 h.
